## Measured logP (octanol/water) values of organic chemicals

From the experimental data distributed with OPERA 2.9.

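The numbers are reported measurements, compiled and curated for the OPERA QSAR suite. A listed value is a point estimate from one report or more. Conditions of the individual experiments are not part of the data. Where a salt, mixture or single isomer is drawn, the source does not say that exactly this form was tested. Unmarked limits or estimates from the upstream databases cannot be ruled out.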

The octanol-water partition coefficient is given as log10; larger values mean a more lipophilic compound. "–" marks a cell with nothing listed here. "via" names the databases from which the curators took the value.

structure (SMILES),name,logP,via
O=C(c1ccccc1)C1CCCCC1,Cyclohexylphenylketone,3.7,eChemPortal
CC(CC=O)CCCC(C)(C)O (centres undefined),Hydroxycitronellal,1.68,eChemPortal
CC(C1CC1)C(O)c1ccc(Cl)cc1 (centres undefined),1-(4-Chlorophenyl)-2-cyclopropyl-1-propanol,3.8,eChemPortal
CN(C)Cc1ccccc1Cl,"1-(2-Chlorophenyl)-N,N-dimethylmethanamine",2.7,eChemPortal
C[C@]12CC[C@@H]3c4ccc(OS(=O)(=O)O)cc4CC[C@H]3[C@@H]1CC[C@@H]2O,"17-Hydroxyestra-1(10),2,4-trien-3-yl hydrogen sulfate",2.936,PubChem
CN1CCN(c2ncccc2CO)C(c2ccccc2)C1 (centres undefined),2-(4-Methyl-2-phenyl-1-piperazinyl)-3-pyridinemethanol,1.3,eChemPortal
O=C1c2c(O)ccc(Nc3ccccc3)c2C(=O)c2c([N+](=O)[O-])ccc(O)c21,Disperse Blue 77,6.9,eChemPortal
COc1cc(/N=N/c2cccc(S(=O)(=O)O)c2)ccc1NC(=O)Nc1ccc(/N=N/c2cccc(S(=O)(=O)O)c2)cc1OC.OCCNCCO.OCCNCCO,–,-4.06,eChemPortal
CCCCC(CC)CNS(=O)(=O)c1ccc(N)cc1 (centres undefined),4-Amino-N-(2-ethylhexyl)benzene-1-sulfonamide,4.1,eChemPortal
Cc1ccc(C(=O)CC(=O)C(F)(F)F)cc1,"4,4,4-Trifluoro-1-(4-methylphenyl)butane-1,3-dione",1.95,eChemPortal
C=C(C)C(=O)OCC1CCC2OC2C1 (centres undefined),(7-Oxabicyclo[4.1.0]heptan-3-yl)methyl 2-methylprop-2-enoate,2.4,eChemPortal
COc1cc(S(=O)(=O)[O-])c(C)cc1NC(=O)CC(C)=O.[NH4+],–,-2.7,eChemPortal
Cc1c(C#N)sc(N)c1C#N,"5-Amino-3-methyl-2,4-thiophenedicarbonitrile",1.84,eChemPortal
COc1cc(Br)c(C=O)cc1O,2-Bromo-5-hydroxy-4-methoxybenzaldehyde,2.2,eChemPortal
CCCCC(CC)COCCCNC(=O)Nc1cccc2c(NC(=O)NCCCOCC(CC)CCCC)cccc12 (centres undefined),–,6.3,eChemPortal
CCCC(Nc1ccc([N+](=O)[O-])cc1[N+](=O)[O-])C(=O)O (racemic),–,2.88,OCHEM
O=c1c2cc(Cl)ccc2[nH]c2cc3c(=O)c4cc(Cl)ccc4[nH]c3cc12,"2,9-Dichloro-5,12-dihydroquino[2,3-b]acridine-7,14-dione",-0.11,eChemPortal
CC(CO)CC(C)c1ccccc1 (centres undefined),2-Methyl-4-phenylpentanol,3.01,eChemPortal
CC(=O)OC(C)CC(C)(C)c1ccccc1 (centres undefined),"1,3-Dimethyl-3-phenylbutyl acetate",3.55,eChemPortal
O=C(Nc1ccc2c(O)c(N=Nc3ccc(N=Nc4ccc(S(=O)(=O)[O-])cc4)cc3)c(S(=O)(=O)[O-])cc2c1)c1ccccc1.[Na+].[Na+],C.I. Direct Red 81 disodium salt,-2.05,eChemPortal
O=C(O)c1c(F)cc(Br)cc1F,"4-Bromo-2,6-difluorobenzoic Acid",2.5,eChemPortal
C=CC(=O)OCC(CCC)CCCCC (centres undefined),–,6.3,eChemPortal
O=C(OC1CCCCC1)c1ccccc1O,Cyclohexyl 2-hydroxybenzoate,4.5,eChemPortal
COc1cc(S(=O)(=O)[O-])c(C)cc1NC(=O)C(/N=N/c1ccc(-c2nc3ccc(C)c(S(=O)(=O)[O-])c3s2)cc1)C(C)=O.[NH4+].[Na+] (stereo partly drawn),C.I. Direct Yellow 157,-3.3,eChemPortal
CC(C)[C@@H]1CC[C@@H](C)C[C@H]1OC(=O)[C@H](C)O,Menthyl lactate,3.639,eChemPortal
CCOc1nc(F)cc2nc(S(=O)(=O)Nc3c(Cl)cccc3C(=O)OC)nn12,Cloransulam-methyl,1.12,"OCHEM, PubChem"
CC(O)CC(C)(C)O (centres undefined),"2-Methyl-2,4-pentanediol",0.58,"OCHEM, PubChem"
CCO[Si](C)(N(C)C(=O)c1ccccc1)N(C)C(=O)c1ccccc1,"N,N'-(Ethoxymethylsilylene)bis(N-methylbenzamide)",0.95,eChemPortal
COC(=O)c1ccc(C(=O)OC)c([N+](=O)[O-])c1,Dimethyl nitroterephthalate,1.78,eChemPortal
O=c1c2ccccc2c(=O)c2c1ccc1[nH]c3c(ccc4c(=O)c5ccccc5c(=O)c43)[nH]c12,Vat Blue 4,1.78,eChemPortal
C[C@@H]1O[C@@H](O[C@@H]2[C@@H](Oc3cc(O)c(C(=O)CCc4ccc(O)cc4)c(O)c3)O[C@@H](CO)[C@H](O)[C@H]2O)[C@H](O)[C@H](O)[C@H]1O,–,0.932,eChemPortal
Clc1cc(Cl)c(-c2c(Cl)c(Cl)cc(Cl)c2Cl)c(Cl)c1,"2,2',3,4',5,6,6'-Heptachlorobiphenyl",6.82,OCHEM
O=C(Nc1cc(S(=O)(=O)[O-])cc2cc(S(=O)(=O)[O-])c(/N=N/c3ccc4c(CNc5nc(F)nc(F)c5Cl)cccc4c3S(=O)(=O)[O-])c(O)c12)c1ccccc1.[Li+].[Na+].[Na+],–,-3.6,eChemPortal
C=C[Si]1(C)O[Si](C)(C=C)O[Si](C)(C=C)O[Si](C)(C=C)O1 (centres undefined),"1,3,5,7-Tetramethyl-1,3,5,7-tetravinylcyclotetrasiloxane",6.47,eChemPortal
C#CC(C)(O)CCC=C(C)C (centres undefined),Dehydrolinalool,2.61,eChemPortal
CC1=NN(c2cccc(S(=O)(=O)O)c2)C(=N)C1,–,-1.951,eChemPortal
CCN(CC)c1ccc(C(=C2C=CC(=[N+](CC)CC)C=C2)c2ccccc2)cc1.O=S(=O)([O-])O,Brilliant Green,0.765,eChemPortal
Nc1ccc(Nc2ccccc2)cc1,"N-Phenyl-1,4-benzenediamine",2.4,PubChem
CCCCCCCCCCCCCOC(=O)c1ccc(C(=O)OCCCCCCCCCCCCC)c(C(=O)OCCCCCCCCCCCCC)c1,"Tri(tridecyl) benzene-1,2,4-tricarboxylate",4.35,eChemPortal
C[N+](C)(CC[N+](C)(C)CC(O)COCC(F)(F)C(F)F)CC(O)COCC(F)(F)C(F)F.[Cl-].[Cl-] (centres undefined),–,-0.434,eChemPortal
O=C(O)c1cn(C2CC2)c2c(F)c(N3C[C@@H]4CCCN[C@@H]4C3)c(F)cc2c1=O,8-Desmethoxy-8-fluoro moxifloxacin,-0.5,eChemPortal
C[N+](C)(C)C1CCCCC1.C[N+](C)(C)C1CCCCC1.O=S(=O)([O-])[O-],"N,N,N-Trimethylcyclohexanaminium sulfate (2:1)",-3.055,eChemPortal
CCCCCCC(O)CCCCCCCCCCC(=O)OC (centres undefined),Methyl 12-hydroxyoctadecanoate,5.467,eChemPortal
CCOc1ccc(NC(=O)c2cc3ccccc3c(N=Nc3cc(Cl)c(Cl)cc3Cl)c2O)cc1,–,2.61,eChemPortal
C=C(C)C(=O)OCCCCCCOc1ccc(/C=C/C(=O)OC)cc1,–,5.182,eChemPortal
CC(N)C12CC3CC(CC(C3)C1)C2 (centres undefined),Rimantadine,3.6,PubChem
CCC(C)(CCCC(C)C)OC(C)=O (centres undefined),"3,7-Dimethyloctan-3-yl acetate",5.6,eChemPortal
CC(C)C1OC2(CCCC2)OCC1(C)C (centres undefined),"6,10-Dioxaspiro[4.5]decane, 8,8-dimethyl-7-(1-methylethyl)-",5.33,OCHEM
O=C1N(CO)C2C(N1CO)N(CO)C(=O)N2CO (centres undefined),–,-2.7,eChemPortal
O=C(O)CCCCCCCCCCCC(=O)O,Tridecanedioic acid,3.3,eChemPortal
O=S(=O)([O-])c1ccc(-c2ccccc2)cc1.[Na+],Sodium 4-biphenylsulfonate,-0.67,OCHEM
CCN(CC)c1cccc(O)c1,3-Diethylaminophenol,2.5,eChemPortal
O=C1c2c(Cl)c(Cl)c(Cl)c(Cl)c2C2=Nc3cccc4cccc(c34)N12,C.I. Solvent Red 135,7.1,eChemPortal

5 of these entries, quoted again:

structure (SMILES),name,logP,via
CCO[Si](C)(N(C)C(=O)c1ccccc1)N(C)C(=O)c1ccccc1,"N,N'-(Ethoxymethylsilylene)bis(N-methylbenzamide)",0.95,eChemPortal
CC(C)[C@@H]1CC[C@@H](C)C[C@H]1OC(=O)[C@H](C)O,Menthyl lactate,3.639,eChemPortal
CN(C)Cc1ccccc1Cl,"1-(2-Chlorophenyl)-N,N-dimethylmethanamine",2.7,eChemPortal
CC(CC=O)CCCC(C)(C)O (centres undefined),Hydroxycitronellal,1.68,eChemPortal
Clc1cc(Cl)c(-c2c(Cl)c(Cl)cc(Cl)c2Cl)c(Cl)c1,"2,2',3,4',5,6,6'-Heptachlorobiphenyl",6.82,OCHEM